# Literature values as cited in publication PMC6934973 (Iranian Journal of Pharmaceutical Research : IJPR, 2019).
# Conditions: result in words; cited from earlier work
compound,measurement,value
CO[C@]12CC[C@@]3(C[C@@H]1[C@](C)(O)C(C)(C)C)[C@H]1Cc4ccc(O)c5c4[C@@]3(CCN1)[C@H]2O5,blood-brain-barrier penetration,very limited blood-brain-barrier penetration
